{
  "sequences": {"note": "Amino acid sequences for entries named in this document (tags omitted). Residues count along the entry.", "UniProt P00811, 20-377": "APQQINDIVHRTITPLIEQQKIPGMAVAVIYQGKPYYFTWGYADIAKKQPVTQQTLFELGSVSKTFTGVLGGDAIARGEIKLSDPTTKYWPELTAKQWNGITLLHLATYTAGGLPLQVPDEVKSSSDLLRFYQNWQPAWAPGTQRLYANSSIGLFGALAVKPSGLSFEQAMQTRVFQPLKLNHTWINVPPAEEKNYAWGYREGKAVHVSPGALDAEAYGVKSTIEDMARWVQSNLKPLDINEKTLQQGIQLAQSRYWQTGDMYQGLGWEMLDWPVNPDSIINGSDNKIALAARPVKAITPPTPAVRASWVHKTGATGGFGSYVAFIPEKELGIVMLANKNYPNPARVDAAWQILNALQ"},
  "source": "patent US20190327974A1",
  "about": "“SYNERGISTS FOR IMPROVED PESTICIDES” (priority 2017, published 2019)",
  "key": {"[1]": {"molecular_target": "bacterial AmpC β-lactamase (Escherichia coli, UniProt P00811)", "assay": "AmpC β-lactamase selectivity", "format": "biochemical", "procedure": "(§1) To characterize the selectivity of boronic acids 1 to 5, they were assayed against AChE, the target of OP and carbamate insecticides (Table 1) as well as trypsin and bacterial AmpC β-lactamase. […] The toxicity of the hits against two human cell lines was further assessed.\n(§2) To characterize the selectivity of boronic acids 1 to 5, they were assayed against the target of OP insecticides, AChE, as well as trypsin and bacterial AmpC β-lactamase (Table 1). AChE and αE7 are homologous, sharing the α/β-hydrolase fold and the same catalytic machinery, however the topology of their binding pockets is dissimilar (Jackson, C. J. et al. Structure and function of an insect α-carboxylesterase (αEsterase7) associated with insecticide resistance. Proc. Natl. Acad. Sci. U.S.A. 110, 10177-82 (2013) and Correy, G. J. et al. Mapping the Accessible Conformational Landscape of an Insect Carboxylesterase Using Conformational Ensemble Analysis and Kinetic Crystallography. Structure 24, 1-11 (2016).). […]"}, "Trypsin": {"molecular_target": "T1, Trypsin (Bos taurus, UniProt P00760)", "T1 construct": "gene PRSS1", "T1 sequence (P00760 24-246)": "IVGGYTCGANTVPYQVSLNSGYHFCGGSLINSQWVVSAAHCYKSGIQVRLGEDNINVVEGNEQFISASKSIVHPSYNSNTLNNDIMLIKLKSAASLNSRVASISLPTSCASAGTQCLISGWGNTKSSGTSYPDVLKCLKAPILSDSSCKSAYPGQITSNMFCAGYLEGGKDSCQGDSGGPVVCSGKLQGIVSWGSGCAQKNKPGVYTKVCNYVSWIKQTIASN", "assay": "Trypsin selectivity", "format": "biochemical", "procedure": "as §1, §2"}},
  "data": [
    {"smiles": "OB(O)c1cc(Br)cc(N2CCCC2)c1", "note": "[Compound 3]", "values": [
      {"measurement": "selectivity for αE7 over AmpC β-lactamase", "setting": "[1]", "value": 240, "unit": "fold"},
      {"measurement": "selectivity for αE7 over trypsin", "setting": "Trypsin", "value": "more than 10^6 fold"}
    ]}
  ]
}
